From US20200384001A1, “COMPOSITION FOR PREVENTION OR TREATMENT OF NEUROINFLAMMATORY DISEASE, CONTAINING PROTEIN TYROSINE PHOSPHATASE” (KYUNGPOOK NATIONAL UNIVERSITY INDUSTRY - ACADEMIC …, priority 2015, published 2020)
Like-named read-outs stand apart in the source and are kept apart here.

Tests used:
BV2 microglia = settings: BV2, 24 hours after iPTP1B treatment, concentrations used in the test (FIG. 9)
primary microglia = settings: 24 hours after iPTP1B treatment (FIG. 10)

Measured: cytotoxicity (MTT assay)

(S)-4-(((S)-1-(12-azanyl)-3-(4-(difluoro(phosphono)methyl)phenyl)-1-oxopropan-2-yl)amino)-3-((S)-3-(4-(difluoro(phosphono)methyl)phenyl)-2-pentadecanamidopropanamido)-4-oxobutanoic acid [iPTP1B]
no significant level of cytotoxicity: BV2 microglia | HAPI cells; LPS experiment, 24 hours after iPTP1B treatment (FIG. 11) | HAPI cells; TNFα experiment, 24 hours after iPTP1B treatment (FIG. 12) | primary microglia
